scFv variants of Ab-14 (heavy chain) against a SARS-CoV-2 spike peptide

Data: MIT Lincoln Laboratory AlphaSeq set, Li et al. 2023, doi:10.1038/s41467-023-39022-2, as distributed in FLAb.

Antigen: PDVDLGDISGINAS, a 14-residue peptide of the SARS-CoV-2 spike HR2 region.

The variants keep the light chain, the linker and the frameworks of Ab-14 (scFv order VH, a 15-residue (Gly4Ser)3 linker, VL).
VH: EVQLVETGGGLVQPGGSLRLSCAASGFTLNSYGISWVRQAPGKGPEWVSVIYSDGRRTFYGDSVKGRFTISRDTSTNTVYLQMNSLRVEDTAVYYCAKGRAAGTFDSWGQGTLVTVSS
VL: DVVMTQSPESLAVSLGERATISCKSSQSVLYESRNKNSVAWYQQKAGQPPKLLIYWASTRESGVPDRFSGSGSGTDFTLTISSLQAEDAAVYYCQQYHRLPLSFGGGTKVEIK

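The parent was found by panning a naive human phage display library on the peptide. The variants were designed computationally from a first round of random CDR variants and then made and measured. Their group label is 14H_Ctrl (Ctrl: baseline library sampled from a position-specific scoring matrix, with some repeated check sequences). AlphaSeq pools MATa yeast showing the antibodies with MATalpha yeast showing the peptide. Mating (16 h, 30 °C) was followed by selection of diploids and sequencing of their barcodes. Scores were corrected for input abundance and mapped to Kd with protein pairs of known affinity run in the same pool. The assay was run in six technical replicates.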

The parent's heavy chain CDRs are GFTLNSYGIS, VIYSDGRRTFYGDSVK, GRAAGTFDS; each variant's own CDRs replace them letter for letter. Affinities are written as log10 Kd with Kd in nM; a lower number is a better binder. Averages over replicates are reported, and they cover detected replicates only. A pair that was not seen in that replicate is written "n.d."; this usually means weak binding, but a binder can also be missed.

CDR-H1	CDR-H2	CDR-H3	log10 Kd (nM) by replicate	mean log10 Kd (nM)	signal with controls
GFTLNSYGIS	VIYSDGRRTFYGDSVK	GRAANTFDT	n.d. 1.93 n.d. n.d. n.d. n.d.	1.93	0/18
GFTLNSYGIS	VIYSDGRRTFYSDAVK	GRAAGTFDL	2.37 0.79 n.d. 1.44 0.78 1.19	1.31	0/18
GFTLESYGIS	VIYSDGKRTFYGDNVK	GRAQGTFDS	n.d. n.d. n.d. n.d. n.d. n.d.	n.d.	0/18
GFTLNSYGIS	VIYSDGRRTSYGDSVK	GNAAGTFDS	n.d. 0.60 n.d. 1.15 1.00 0.07	0.70	0/18
GFTLNSYGIS	VIYSDGRRAGYGDSVK	GRAAGTFDS	0.53 1.33 0.84 0.76 1.51 0.73	0.95	0/18
GFVLNSYGIS	VIYSDGRRTFYGDSVK	GRAAGTNDS	n.d. n.d. n.d. n.d. n.d. n.d.	n.d.	0/18
GFTLNEYGIS	VIYSDQRRNFYGDSVK	GRAAGTFDL	n.d. n.d. n.d. n.d. n.d. n.d.	n.d.	0/18
GFNLNSYGIS	VIYSDGRRTFYGDSVK	GRAAGTFDY	n.d. 1.69 1.56 n.d. 2.24 2.26	1.94	0/18
GFTLESYGIS	VIYSDGRRTFYGDSVK	GQAAGLFDS	n.d. n.d. n.d. n.d. n.d. n.d.	n.d.	0/18
GFQLNSYGIS	VIYSDGRRTFYGDSVK	GRLAGAFDK	n.d. n.d. n.d. n.d. n.d. n.d.	n.d.	0/18
GFGLNSYGIT	VIYSDGRRTFYQDSVK	GRAAGTFDS	n.d. n.d. n.d. n.d. n.d. n.d.	n.d.	1/18 (2.33)
GFTLNSYGIS	VIYSDGRRTWYSDSVK	GRAAGTFDS	1.21 1.35 1.08 0.57 0.97 1.53	1.12	0/18
GFTLNSHGIS	VIYDDGRRTFYGDSVK	DGAAGTFDS	n.d. n.d. n.d. n.d. n.d. n.d.	n.d.	0/18
GFTLNSYGIS	VIYADGRRTFYLDSVK	GRLGGTFDS	n.d. n.d. 1.09 n.d. n.d. 1.22	1.16	0/18
GFELNSYGIS	VMYSDGRRTAYADSVK	GRAAGTFDS	1.59 0.46 -0.23 -0.08 -0.17 -0.12	0.24	1/18 (1.96)
GVWLNSYGMS	VIYSDGRRTFYNDSVK	GRAAGTFDS	n.d. n.d. n.d. n.d. n.d. n.d.	n.d.	0/18
GFTLNSYGIS	VIYSDGRRTFYGDSVK	CRAAGTFES	n.d. n.d. n.d. n.d. n.d. n.d.	n.d.	0/18
GFTLNSYGIS	VIYSDGERTFYGDSVK	GRAAGTFDY	n.d. n.d. n.d. 0.54 n.d. n.d.	0.54	0/18
GFTLNSYGIS	VIYSDGRRTHYGDSVK	GRAAKTFDS	n.d. n.d. n.d. n.d. n.d. n.d.	n.d.	0/18
GFTLNSYGIS	VIYSDGRRTFYGDSVK	GSLAGTFDS	0.83 1.25 0.79 1.19 1.16 1.25	1.08	0/18
GFTLNSYGIS	VIYSDGRRTIYGDSVK	GRAAGSFND	1.95 n.d. n.d. n.d. n.d. n.d.	1.95	0/18
GFTLNEYGIS	VIYSDGRRKFYGDSVK	GRIAGTFDS	0.34 0.35 -0.26 -0.02 -0.27 0.61	0.13	0/18
GFDLNSYGIS	VIYSDGHRTFYIDSVK	GRAAGTFDS	0.84 0.83 0.54 0.96 0.33 0.47	0.66	0/18
GFTLNSYGIS	VIYSDGVRTMYGDSVK	HRLALTFDS	n.d. n.d. n.d. n.d. n.d. n.d.	n.d.	0/18
GITLNSYGIS	VIYSKGRRTMYIDSVK	GQAAGTFDL	n.d. n.d. n.d. 2.00 n.d. n.d.	2.00	1/18 (1.31)
GFNLNSYGIS	VIYSDGYRTFYGDSVK	GRAAVTFDS	n.d. n.d. n.d. n.d. n.d. n.d.	n.d.	0/18
GFMLNSYGIS	VIYSDGFRTFYSDSVK	DRAAGTFDE	n.d. n.d. n.d. n.d. n.d. n.d.	n.d.	0/18
GFTLNSYGIS	VIYSDGRRTFYSDSVK	GAAIGTFDS	n.d. 2.22 n.d. n.d. n.d. n.d.	2.22	0/18
GFTINSYGIS	VIYSDGRRTFYGDSVK	LRAAGTFDS	n.d. n.d. n.d. n.d. n.d. n.d.	n.d.	0/18
GFTLNSYGIS	VIYRDGRRTFYGDSVK	GRIGGSFDS	n.d. n.d. n.d. n.d. n.d. n.d.	n.d.	0/18
GLVLNSYGIS	VIYSDGRRNFYGDSVK	GRAAGTFDS	n.d. n.d. n.d. n.d. n.d. n.d.	n.d.	0/18

Excerpt, the final 2 entries:

| CDR-H1 | CDR-H2 | CDR-H3 | log10 Kd (nM) by replicate | mean log10 Kd (nM) | signal with controls |
|---|---|---|---|---|---|
| GFTLNSYGIS | VIYRDGRRTFYGDSVK | GRIGGSFDS | n.d. n.d. n.d. n.d. n.d. n.d. | n.d. | 0/18 |
| GLVLNSYGIS | VIYSDGRRNFYGDSVK | GRAAGTFDS | n.d. n.d. n.d. n.d. n.d. n.d. | n.d. | 0/18 |

The authors' rule: three or more of the six replicates give a measured affinity, fewer mean a poor binder. Nonspecific signal, from three strains lacking the peptide, appeared in 1% of pairings of all heavy chain designs, centred on 2.08 (5% of these signals below 0.84); values are not corrected for it. Also given: how often the same scFv was detected with the empty control strains, with their mean in brackets. Of ten entries with the parent sequence, four were seen in most replicates (averages 0.34 to 2.37), three in one and three in none, so single entries are noisy. The range of this assay differs from that of the first round, and the authors advise against merging the two.